Test results taken from PubChem BioAssay AID1259400 (National Center for Advancing Translational Sciences (NCATS), 2018).
Screen size: about 350,000 compounds; about 2,100 (0.6%) were called active. These results got no clear call from the source, so the numbers are uncertain.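 Rule for the calls: active = activity change of -60% or lower, but not beyond a set lower limit; inconclusive = change between -60% and -40%, or beyond the set limit; inactive = change above -40%.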
% is set by controls: 0 for no effect and ±100 for the full control effect.

Chains of the proteins cited; added tags and fusions are not shown. Lines headed by an entry give the natural chain unless they say otherwise; changes in a name come on top.
UniProt Q9HBX9: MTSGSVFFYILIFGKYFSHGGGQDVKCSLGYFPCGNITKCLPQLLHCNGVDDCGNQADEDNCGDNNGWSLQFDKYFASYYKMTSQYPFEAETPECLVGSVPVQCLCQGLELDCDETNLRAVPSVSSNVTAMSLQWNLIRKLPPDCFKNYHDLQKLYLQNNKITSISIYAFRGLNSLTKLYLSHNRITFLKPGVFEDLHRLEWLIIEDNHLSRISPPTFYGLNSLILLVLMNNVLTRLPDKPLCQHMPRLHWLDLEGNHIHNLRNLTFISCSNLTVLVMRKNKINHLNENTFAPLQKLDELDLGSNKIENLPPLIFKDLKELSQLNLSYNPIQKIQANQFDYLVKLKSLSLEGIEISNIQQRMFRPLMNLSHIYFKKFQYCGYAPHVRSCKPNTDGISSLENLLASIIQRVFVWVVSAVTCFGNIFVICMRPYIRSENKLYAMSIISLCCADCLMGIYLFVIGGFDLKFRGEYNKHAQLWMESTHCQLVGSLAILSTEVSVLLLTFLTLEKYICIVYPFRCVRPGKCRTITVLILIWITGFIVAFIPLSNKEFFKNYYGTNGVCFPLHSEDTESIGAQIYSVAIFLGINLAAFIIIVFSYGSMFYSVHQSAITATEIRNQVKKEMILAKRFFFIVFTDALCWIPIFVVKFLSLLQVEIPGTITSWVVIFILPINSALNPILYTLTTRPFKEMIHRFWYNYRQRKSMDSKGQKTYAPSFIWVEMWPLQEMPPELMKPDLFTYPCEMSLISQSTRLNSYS

These molecules were tested against Relaxin receptor 1 (Homo sapiens) (UniProt Q9HBX9) (assay: qHTS Assay for Antagonists of the Relaxin Receptor RXFP1). Conditions: HEK293-RXFP1, relaxin-stimulated cAMP HTRF, 30 min; at 57.5 µM; active compounds read low.
Source text: The relaxin hormone is involved in the variety of biological functions in normal tissues and diseases. The role of relaxin is well-established in female reproduction and parturition, mammary gland and endometrial development, maintenance of myometrial quiescence during pregnancy. Relaxin signaling through its G protein-coupled receptor (GPCR) RXFP1 results in ECM remodeling through regulation of collagen deposition, cell invasiveness, proliferation and overall tissue homeostasis. […] Recombinant human relaxin (rhRlx) is currently being tested in clinical trials as a protective agent in congestive heart failure, in treating severe preeclampsia, and as an anti-fibrotic agent in various organs. […] Upon relaxin binding RXFP1 activation leads to the activation of adenylate cyclase (AC) via G?s. cAMP will activate PKA, which phosphorylates many signaling proteins. Thus, detection of cAMP increase is an easy and reliable indication of relaxin receptor activation. To screen for antagonists of the relaxin receptor, a HEK293T cell line stably transfected with RXFP1 was used. RXFP1 activation by relaxin in presence of various concentrations of tested compounds was assayed by changes in cAMP levels as detected with a time-resolved fluorescence energy transfer (TR-FRET) cAMP detection kit.
For the primary screening, we used HTRF(R) (Homogenous Time-Resolved Fluorescence) cAMP HiRange assay (Cisbio Bioassays, 62AM6PEJ). Presence of cAMP in the cell lysate disrupts binding between the Cryptate-labeled anti-cAMP and d2-labeled cAMP pair, leading to a decrease in TR-FRET signal. […] The EC50 values were determined from concentration-response data modeled with the standard Hill equation. […] The plates were incubated at ambient temperature for 30 minutes and, then, FRET signal was read on Envision plate reader (PerkinElmer, Waltham, MA), at wavelengths 340nm (excitation), 615nm & 665nm (emission of donor and acceptor channels respectively).
In the case of `Cc1ccc2nc3c(c(C)c2c1)CC(C(Cl)Cl)S3` (stereo not drawn), the activity change, negative = inhibition is reported as inconclusive: -44.8%.
For `O=P(Nc1nc2ccc(Cl)cc2s1)(c1ccccc1)c1ccccc1`, the activity change, negative = inhibition was inconclusive: -41.6%.
`O=c1c2cc([N+](=O)[O-])ccc2[nH]c2c([N+](=O)[O-])cc([N+](=O)[O-])cc12` was tested, and the activity change, negative = inhibition was inconclusive: -40.1%.
